Assays:
[1] = target: T1, human opioid receptor-like (ORL-1) (Homo sapiens, UniProt P41146); assay: In vitro ORL-1 receptor binding assay ([3H]-nociceptin displacement); conditions: read-out: Ki [Average ± Std Deviation] (nM) ORL-1; membranes from recombinant HEK-293 cells; 0.1 nM [3H]-nociceptin
µ-opioid receptor [2] = target: T2, µ-opioid receptor (Homo sapiens, UniProt P35372); assay: In vitro µ-opioid receptor binding assay ([3H]-diprenorphine dose-displacement); conditions: read-out: Ki [Average ± Std Deviation] (nM) Opioid Receptor µ; 0.2 nM [3H]-diprenorphine
µ-opioid receptor [3] = target: T2, µ-opioid receptor; assay: In vitro µ-opioid receptor functional assay ([35S]GTPγS); conditions: for GTP Emax (%) Opioid Receptor µ: maximal effect relative to the effect elicited by DAMGO; for EC50: read-out: GTP EC50 (nM) Opioid Receptor µ, [35S]GTPγS, µ-receptor membranes
[4] = target: T1, human opioid receptor-like (ORL-1); assay: In vitro ORL-1 receptor functional assay ([35S]GTPγS binding); conditions: for GTP Emax (%) ORL-1: maximal effect relative to the effect elicited by nociceptin; for EC50: read-out: GTP EC50 (nM) ORL-1, [35S]GTPγS, ORL-1 membranes
Kappa opioid receptor = Kappa opioid receptor (Homo sapiens, UniProt P41145); assay: In vitro κ-opioid receptor functional assay ([35S]GTPγS binding); conditions: for GTP Emax (%) Opioid Receptor κ: maximal effect relative to the effect elicited by U69,593; for EC50: read-out: GTP EC50 (nM) Opioid Receptor K, [35S]GTPγS, kappa membranes
[5] = target: human kappa opioid receptor (kappa) (Homo sapiens, UniProt P41145); assay: In vitro κ-opioid receptor binding assay ([3H]-U69,593 dose displacement); conditions: read-out: Ki [Average ± Std Deviation] (nM) Opioid Receptor κ; membranes from recombinant HEK-293 cells; 0.4-0.8 nM [3H]-U69,593
[6] = target: recombinant delta opioid receptor (Homo sapiens, UniProt P41143); assay: In vitro δ-opioid receptor binding assay ([3H]-Naltrindole dose-displacement); conditions: read-out: Ki [Average ± Std Deviation] (nM) Opioid Receptor Δ; receptor expressed in CHO-K1 cells; 0.2 nM [3H]-Naltrindole

Structure (SMILES) | Ki [1] | Ki (µ-opioid receptor [2]) | GTP Emax (%) Opioid Receptor µ (µ-opioid receptor [3]) | EC50 (µ-opioid receptor [3]) | GTP Emax (%) ORL-1 [4] | EC50 [4] | GTP Emax (%) Opioid Receptor κ (Kappa opioid receptor) | EC50 (Kappa opioid receptor) | Ki [5] | Ki [6]
CCC1(CC)C(=O)Nc2ccccc2N(C2CCN(C3CCC(C(C)C)CC3)CC2)C1=O (stereo not drawn) | 1550 nM | 5000 nM | – | – | – | – | – | – | – | –
O=c1[nH]c2ccccc2n(C2CCN(C3Cc4cccc5cccc3c45)CC2)c1=O (stereo not drawn) | 8.9 nM | 1300 nM | 66.0 ± 0.7% | 1640 nM | 132 ± 8.5% | 31.9 nM | 57.7 ± 4.3% | 7000 nM | 439 nM | 4050 nM
O=C1CC(=O)N(C2CCN(C3CCCCCCC3)CC2)c2cc(C(=O)O)ccc2N1 | > 1e+06 nM | – | – | – | – | – | – | – | – | –
O=c1[nH]c2ccccc2n([C@@H]2C[C@H]3CCC[C@@H](C2)N3C2CCCCCCC2)c1=O | 13 nM | 769 nM | – | – | 53% | 96 nM | 28% | 4800 nM | 170 nM | 21900 nM
O=c1[nH]c2ncccc2n(C2CCN(C3CCCCCCC3)CC2)c1=O | 89 nM | 17400 nM | – | – | 38% | 202 nM | – | – | 1320 nM | 54800 nM
N#CCn1c(=O)c(=O)n(C2CCN(C3CCCCCCC3)CC2)c2ccccc21 | 52 nM | 9540 nM | – | – | 46% | 141 nM | – | – | 4230 nM | 65700 nM
CCC1(CC)C(=O)Nc2ccccc2N(C2CCN(C3CCCCCCC3)CC2)C1=O | 620 nM | 6200 nM | – | – | – | 1300 nM | – | – | – | –
CCn1c(=O)c(=O)n(C2CCN(C3CCCCCCC3)CC2)c2ccccc21 | 291 nM | > 1e+06 nM | – | – | 27% | 450 nM | – | – | – | –
CN1C(=O)CC(=O)N(C2CCN(C3CCCCCCC3)CC2)c2ccccc21 | 1530 nM | – | – | – | – | – | – | – | – | –
O=c1[nH]c2c(F)cccc2n(C2CCN(C3CCCCCCC3)CC2)c1=O | 63.2 nM | – | – | – | 60.3 ± 4.6% | 183 nM | – | – | – | –
COC(=O)c1ccc2c(c1)N(C1CCN(C3CCCCCCC3)CC1)C(=O)CC(=O)N2 | 39900 nM | – | – | – | – | – | – | – | – | –
NC(=O)Cn1c(=O)c(=O)n(C2CCN(C3Cc4cccc5cccc3c45)CC2)c2ccccc21 (stereo not drawn) | 453 nM | 3300 nM | – | – | 152 ± 18% | 5250 nM | – | – | 6950 nM | 5450 nM
O=C1CC(=O)N(C2CCN(C3CCCCCCC3)CC2)c2ccccc2N1 | 35.5 nM | 13700 nM | – | – | – | 166 nM | – | 1290 nM | 355 nM | 16200 nM
O=C1CC(=O)N(C2CCN(C3CCCCCCC3)CC2)c2cccnc2N1 | 51 nM | 12400 nM | – | – | – | 574 nM | – | – | – | 72400 nM
CC(C)C1CCC(N2CCC(n3c(=O)c(=O)[nH]c4ccccc43)CC2)CC1 (stereo not drawn) | 22.8 nM | 825 nM | 28.5 ± 2.6% | 3920 nM | 68 ± 1.0% | 208 nM | 22.5 ± 2.6% | 4050 nM | 880 nM | 9600 nM
O=C1CC(=O)N([C@H]2C[C@H]3CCC[C@@H](C2)N3C2CCCCCCC2)c2ccccc2N1 | 173 nM | 11900 nM | – | – | 22% | 168 nM | – | – | – | –
O=C1CC(=O)N(C2CCN(C3CCCCCCC3)CC2)c2cccc(F)c2N1 | 229 nM | – | – | – | – | 770 nM | – | – | – | –
O=c1[nH]c2ccccc2n([C@H]2C[C@H]3CCC[C@@H](C2)N3C2CCCCCCC2)c1=O | 4 nM | 529 nM | – | – | 44% | 25 nM | – | – | – | 20800 nM
O=C1CC(=O)N(C2CCN(C3CCCCCCC3)CC2)c2cc(F)ccc2N1 | 32.6 nM | 3800 nM | – | – | – | 153 nM | – | – | – | –
COc1ccc2c(n1)N(C1CCN(C3/C=C\CCCCC3)CC1)C(=O)CC(=O)N2 (stereo not drawn) | 6010 nM | – | – | – | – | – | – | – | – | –
COC(=O)C1(N2CCC(N3C(=O)CC(=O)Nc4ccc(F)cc43)CC2)CCCCCCC1 | 68 nM | 11700 nM | – | – | – | 1550 nM | – | – | – | –
O=c1[nH]c2ccc(N3CCOCC3)cc2n(C2CCN(C3CCCCCCC3)CC2)c1=O | 584 nM | 28200 nM | – | – | 90% | 7800 nM | 25% | 14000 nM | 559 nM | 52100 nM
COc1ccc2c(n1)NC(=O)CC(=O)N2C1CCN(C2/C=C\CCCCC2)CC1 (stereo not drawn) | 16500 nM | – | – | – | – | – | – | – | – | –
CC(C)C1CCC(N2CCC(N3C(=O)CC(=O)Nc4ccccc43)CC2)CC1 (stereo not drawn) | 610 nM | 2950 nM | – | – | – | 1400 nM | – | – | – | –
O=c1[nH]c2ccccc2n(C2CCN(C3CCCCCCC3)CC2)c1=O | 65 nM | 2200 nM | – | – | 87.3 ± 5.3% | 240 nM | 13.7 ± 0.9% | 590 nM | 167 nM | 2900 nM
O=c1[nH]c2ccc(F)cc2n(C2CCN(C3CCCCCCC3)CC2)c1=O | 11.5 nM | 2500 nM | – | 2500 nM | 74 ± 16% | 11.5 nM | – | – | – | –

Reference: patent publication EP2397477B1, “Heterocyclic-substituted piperidine compounds and the uses thereof” (dated 2008)
